The numbers were not newly measured in patent US20250041322A1, “HEAT STRESS RELIEVING AGENT” (Hayashibara Co., Ltd., priority 2018, published 2025), which cites them from elsewhere.

As to α-glycosyl hesperidin, the “Water solubility, comparison in words” value was “more water-soluble than hesperidin and 7-O-β-glucosyl hesperetin”.
